Cyclic peptide permeability, from CycPeptMPDB

Source: CycPeptMPDB (Li et al. 2023), which took these values from Furukawa et al. 2016, doi:10.1021/acs.jmedchem.6b01246.

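The data file gives no further conditions (lipid, pH, time, direction or concentration), and values from different papers need not be comparable. The list need not hold all peptides of the study. Entries at the database's floor value (log10 P of -10) are not listed.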

PAMPA is the parallel artificial membrane permeability assay, which has no cells and reads passive diffusion.
Values are log10 P with P in cm/s, so -5 is more permeable than -7.

Listed for CCCC[C@@H]1NC(=O)[C@@H](CC(C)C)NC(=O)CN(CC2CCCCC2)C(=O)[C@H](C)NC(=O)CN(CC)C(=O)[C@@H]2CCCN2C1=O: PAMPA -5.90 (log10 cm/s).
Listed for CCCCCN1CC(=O)N(C)[C@@H](CC(C)C)C(=O)N[C@@H](CCCC)C(=O)N2CCC[C@H]2C(=O)N(Cc2ccc3c(c2)OCO3)CC(=O)N[C@H](Cc2ccccc2)C1=O: PAMPA -5.50 (log10 cm/s).
Listed for CCCCCN1CC(=O)N(C)[C@@H](CC(C)C)C(=O)N[C@@H](CCCC)C(=O)N2CCC[C@@H]2C(=O)N(Cc2ccc3c(c2)OCO3)CC(=O)N[C@H](Cc2ccccc2)C1=O: PAMPA -5.45 (log10 cm/s).
Listed for CCCC[C@@H]1NC(=O)[C@H](CC(C)C)NC(=O)CN(CC2CCOCC2)C(=O)[C@H](C)NC(=O)CN(Cc2ccc3c(c2)OCO3)C(=O)[C@@H]2CCCN2C1=O: PAMPA -6.54 (log10 cm/s).
Listed for CCCC[C@@H]1NC(=O)[C@@H](CC(C)C)NC(=O)CN(CC2CCCCC2)C(=O)[C@@H](Cc2ccccc2)NC(=O)CN(CCCOC(C)C)C(=O)[C@H]2CCCN2C1=O: PAMPA -5.16 (log10 cm/s).
Listed for CCCC[C@@H]1NC(=O)[C@H](CC(C)C)N(C)C(=O)CN(CC2CCOCC2)C(=O)[C@H](C)NC(=O)CN(CCCOC(C)C)C(=O)[C@H]2CCCN2C1=O: PAMPA -6.47 (log10 cm/s).
Listed for CCCC[C@@H]1NC(=O)[C@H](CC(C)C)N(C)C(=O)CN(CC2CCOCC2)C(=O)[C@@H](C)NC(=O)CN(CCCOC(C)C)C(=O)[C@H]2CCCN2C1=O: PAMPA -7.33 (log10 cm/s).
Listed for CCCCCN1CC(=O)N(C)[C@H](CC(C)C)C(=O)N[C@@H](CCCC)C(=O)N2CCC[C@@H]2C(=O)N(CCCOC(C)C)CC(=O)N[C@@H](Cc2ccccc2)C1=O: PAMPA -5.58 (log10 cm/s).
Listed for CCCC[C@@H]1NC(=O)[C@@H](CC(C)C)NC(=O)CN(CC2CCOCC2)C(=O)[C@H](C)NC(=O)CN(CCCOC(C)C)C(=O)[C@H]2CCCN2C1=O: PAMPA -6.75 (log10 cm/s).
Listed for CCCCCN1CC(=O)N(C)[C@@H](CC(C)C)C(=O)N[C@@H](CCCC)C(=O)N2CCC[C@@H]2C(=O)N(CC)CC(=O)N[C@@H](C)C1=O: PAMPA -5.32 (log10 cm/s).
Listed for CCCCCN1CC(=O)N(C)[C@@H](CC(C)C)C(=O)N[C@@H](CCCC)C(=O)N2CCC[C@@H]2C(=O)N(Cc2ccc3c(c2)OCO3)CC(=O)N[C@@H](C)C1=O: PAMPA -4.91 (log10 cm/s).
Listed for CCCC[C@@H]1NC(=O)[C@H](CC(C)C)N(C)C(=O)CN(CC2CCOCC2)C(=O)[C@H](C)NC(=O)CN(CC)C(=O)[C@H]2CCCN2C1=O: PAMPA -6.76 (log10 cm/s).
Listed for CCCC[C@@H]1NC(=O)[C@H](CC(C)C)NC(=O)CN(CC2CCCCC2)C(=O)[C@@H](C)NC(=O)CN(CC)C(=O)[C@H]2CCCN2C1=O: PAMPA -6.65 (log10 cm/s).
Listed for CCCCCN1CC(=O)N[C@@H](CC(C)C)C(=O)N[C@@H](CCCC)C(=O)N2CCC[C@@H]2C(=O)N(CCCOC(C)C)CC(=O)N[C@H](C)C1=O: PAMPA -5.97 (log10 cm/s).
Listed for CCCCCN1CC(=O)N(C)[C@@H](CC(C)C)C(=O)N[C@@H](CCCC)C(=O)N2CCC[C@@H]2C(=O)N(Cc2ccc3c(c2)OCO3)CC(=O)N[C@@H](Cc2ccccc2)C1=O: PAMPA -6.67 (log10 cm/s).
Listed for CCCCCN1CC(=O)N[C@@H](CC(C)C)C(=O)N[C@@H](CCCC)C(=O)N2CCC[C@@H]2C(=O)N(CC)CC(=O)N[C@H](C)C1=O: PAMPA -6.84 (log10 cm/s).
Listed for CCCC[C@@H]1NC(=O)[C@@H](CC(C)C)N(C)C(=O)CN(CC2CCOCC2)C(=O)[C@H](Cc2ccccc2)NC(=O)CN(Cc2ccc3c(c2)OCO3)C(=O)[C@H]2CCCN2C1=O: PAMPA -5.48 (log10 cm/s).
Listed for CCCC[C@@H]1NC(=O)[C@@H](CC(C)C)NC(=O)CN(CC2CCCCC2)C(=O)[C@@H](Cc2ccccc2)NC(=O)CN(CCCOC(C)C)C(=O)[C@@H]2CCCN2C1=O: PAMPA -4.87 (log10 cm/s).
Listed for CCCC[C@@H]1NC(=O)[C@@H](CC(C)C)N(C)C(=O)CN(CC2CCOCC2)C(=O)[C@H](C)NC(=O)CN(CC)C(=O)[C@H]2CCCN2C1=O: PAMPA -6.60 (log10 cm/s).
Listed for CCCC[C@@H]1NC(=O)[C@@H](CC(C)C)NC(=O)CN(CC2CCCCC2)C(=O)[C@H](C)NC(=O)CN(Cc2ccc3c(c2)OCO3)C(=O)[C@@H]2CCCN2C1=O: PAMPA -5.01 (log10 cm/s).
Listed for CCCC[C@@H]1NC(=O)[C@H](CC(C)C)N(C)C(=O)CN(CC2CCCCC2)C(=O)[C@H](Cc2ccccc2)NC(=O)CN(CC)C(=O)[C@@H]2CCCN2C1=O: PAMPA -5.07 (log10 cm/s).
Listed for CCCC[C@@H]1NC(=O)[C@H](CC(C)C)NC(=O)CN(CC2CCOCC2)C(=O)[C@@H](C)NC(=O)CN(CCCOC(C)C)C(=O)[C@H]2CCCN2C1=O: PAMPA -7.84 (log10 cm/s).
Listed for CCCC[C@@H]1NC(=O)[C@H](CC(C)C)N(C)C(=O)CN(CC2CCCCC2)C(=O)[C@@H](Cc2ccccc2)NC(=O)CN(CC)C(=O)[C@H]2CCCN2C1=O: PAMPA -5.16 (log10 cm/s).

The 2 highest values of PAMPA among the entries above:

{"smiles": "CCCC[C@@H]1NC(=O)[C@@H](CC(C)C)NC(=O)CN(CC2CCCCC2)C(=O)[C@@H](Cc2ccccc2)NC(=O)CN(CCCOC(C)C)C(=O)[C@@H]2CCCN2C1=O", "PAMPA (log10 cm/s)": "-4.87"}
{"smiles": "CCCCCN1CC(=O)N(C)[C@@H](CC(C)C)C(=O)N[C@@H](CCCC)C(=O)N2CCC[C@@H]2C(=O)N(Cc2ccc3c(c2)OCO3)CC(=O)N[C@@H](C)C1=O", "PAMPA (log10 cm/s)": "-4.91"}